“And” between values parts separate entries of the source, which are not always exact repeats. Identical values can stand only once. Like-named read-outs stand apart in the source and are kept apart here.
Tested on: thermostable variant of hCA II ('5X' mutant, M5X)
[1] = linear regression method, 5X CA

Row | SMILES | k3* [1] | k4* [1] [m^3 · g^−1] | k3* | observed kOV [s⁻¹]
1 | NCCO [MEA, monoethanolamine] | 0.057 m^6 · mol^−1 · g^−1 · s^−1 | 0.040 | – | –
2 | CC(O)CN(CC(C)O)CC(C)O (stereo not shown) [TIPA, tri-isopropanolamine] | – | – | 0.028 m^6 · mol^−1 · kg^−1 · s^−1 and 0.036 m^6 · mol^−1 · g^−1 · s^−1 | 110 to 150

Reference: patent US20140106440A1, “ENHANCED ENZYMATIC CO2 CAPTURE TECHNIQUES ACCORDING TO SOLUTION PKA, TEMPERATURE AND/OR ENZYME CHARACTER” (CO2 SOLUTIONS INC., priority 2011, published 2014)
